Literature values in patent publication US20050220865A1, “Compressed composition comprising magnesium salt” (priority 2004, published 2005).

Conditions: cited from earlier work

## magnesium gluconate [Mg Gluconate]
USP 27/NF22 solubility term
  USP 27/NF22 Solubility: Freely Soluble
Neutral water
  Solubility in Neutral Water: 16 g/100 mL
